The text below walks through data of PubChem BioAssay (Tox21).

Sequences of proteins named here, by UniProt entry; tags and fusion partners are left off. A change or cut given only in a name is not applied to a line headed by its entry.
UniProt Q14994: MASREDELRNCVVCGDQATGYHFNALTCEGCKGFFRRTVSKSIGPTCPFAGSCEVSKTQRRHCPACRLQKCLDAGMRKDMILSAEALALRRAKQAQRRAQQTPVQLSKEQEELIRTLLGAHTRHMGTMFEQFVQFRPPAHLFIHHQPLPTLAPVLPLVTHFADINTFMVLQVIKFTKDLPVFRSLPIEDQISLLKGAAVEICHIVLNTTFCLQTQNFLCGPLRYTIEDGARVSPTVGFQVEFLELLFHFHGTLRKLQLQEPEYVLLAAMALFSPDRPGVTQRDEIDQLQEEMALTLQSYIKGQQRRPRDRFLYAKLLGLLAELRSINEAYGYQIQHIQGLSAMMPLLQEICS
UniProt P16473, whole entry, looked up: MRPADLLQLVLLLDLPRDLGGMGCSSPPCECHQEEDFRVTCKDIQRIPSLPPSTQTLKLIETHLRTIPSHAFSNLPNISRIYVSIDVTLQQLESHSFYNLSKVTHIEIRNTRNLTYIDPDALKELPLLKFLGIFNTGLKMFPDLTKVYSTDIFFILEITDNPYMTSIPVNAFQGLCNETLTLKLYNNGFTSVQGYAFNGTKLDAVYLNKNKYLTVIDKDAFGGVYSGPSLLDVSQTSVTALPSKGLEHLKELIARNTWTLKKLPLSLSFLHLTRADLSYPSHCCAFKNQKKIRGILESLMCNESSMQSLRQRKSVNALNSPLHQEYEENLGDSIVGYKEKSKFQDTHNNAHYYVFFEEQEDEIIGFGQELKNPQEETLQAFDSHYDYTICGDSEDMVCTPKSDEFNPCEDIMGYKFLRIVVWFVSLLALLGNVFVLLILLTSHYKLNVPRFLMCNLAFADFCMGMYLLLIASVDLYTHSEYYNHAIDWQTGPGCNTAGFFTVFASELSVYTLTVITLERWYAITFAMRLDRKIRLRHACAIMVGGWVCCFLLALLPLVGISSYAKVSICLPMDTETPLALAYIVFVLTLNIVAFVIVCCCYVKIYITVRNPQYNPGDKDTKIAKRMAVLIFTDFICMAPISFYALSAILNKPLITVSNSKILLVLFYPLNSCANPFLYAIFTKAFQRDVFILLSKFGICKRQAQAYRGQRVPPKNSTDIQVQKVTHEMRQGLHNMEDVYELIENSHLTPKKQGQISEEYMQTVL

The structures appear in SMILES notation. Values joined by “and” are separate entries in the source; they are usually repeats but may differ in a detail not shown here. Identical values can stand only once. This is a selection; strong and weak results do not stand in their true shares. Inconclusive results are not listed. A structure can be active in one record and inactive in another. Active and inactive are the calls of the source. Unless noted, calls follow the shape of the dose curve; as a rule, active = well fitted curve in the direction sought with a large enough effect in the repeat runs; inconclusive = weak or mixed curves; inactive = no such curve, though single readings can be large; an effect the other way counts as inactive or inconclusive.

Test [1] concerns the target Nuclear receptor subfamily 1 group I member 3 (Homo sapiens) (UniProt Q14994). Nature of the test: qHTS assay to identify small molecule antagonists of the constitutive androstane receptor (CAR) signaling pathway (AID 1224838).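 Also: HepG2 cells stably expressing hCAR with CYP2B6 luciferase reporter stimulated by CITCO; nearly all actives have a fitted effect of over 40% in size.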 Also: potency is read from the fitted curve at half-maximal effect.
Test [2] has the same target. Nature of the test: qHTS assay to identify small molecule agonists of the constitutive androstane receptor (CAR) signaling pathway (AID 1224839).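 Also: HepG2 cells stably carrying human CAR and a CYP2B6 luciferase reporter; nearly all actives have a fitted effect of over 15% in size.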 The following applies: HepG2 hCAR CYP2B6-luciferase, agonist mode, 24 h; at 92.4 µM (top of the series) unless noted.
Test [3] in a line: qHTS assay to identify small molecule antagonists of the estrogen related receptor signaling pathway with the pleiotropic PPARgamma coactivator (PGC) from Tox21 10K library - cell viability counter screen (AID 1224840; active = well fitted cell-killing curve with a large enough effect in the repeat runs, not every such curve was filed as active; also: nearly all actives have a fitted effect of over 40% in size). The settings on record: PGC/ERR reporter cells viability, CellTiter-Fluor, 17.5 h; at 92.4 µM (top of the series) unless noted. In a few lines: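 Following seeding of 2,000 PGC/ERR cells/well and 6 hours' incubation, test compounds were delivered in DMSO. The plates then sat 17.5 hours at 37 C before a fluorogenic live-cell protease reagent (CellTiter-Fluor) was read after 30 min.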

The target of test [4] is Thyrotropin receptor (Homo sapiens) (UniProt P16473). Description: qHTS assay to identify small molecule agonists of the thyroid stimulating hormone receptor (TSHR) signaling pathway (AID 1224843; calls by dose curve; also: nearly all actives have a fitted effect of over 45% in size).
A short description of test [5]: qHTS assay to identify small molecule agonists of the hypoxia (HIF-1) signaling pathway - cell viability counter screen (AID 1224844; calls by dose curve; also: nearly all actives have a fitted effect of over 50% in size). In a few lines: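 Cells (HRE-bla ME-180, 2,000 per well) sat 5 hrs at 37C, got compound for 17 hrs, were read for CCF4-AM FRET, and were finally lysed with CellTiter-Glo for a 30 min room-temperature luminescence read.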
Test [6] in a line: qHTS assay to identify small molecule agonists of H2AX (AID 1224845; active = well fitted activation curve with a large enough effect in the signal ratio in the repeat runs, not every such curve was filed as active; the % refers to the signal ratio; also: potency is read from the fitted curve at half-maximal effect). An outline of the steps:
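Wild-type CHO-K1 cells, plated overnight, exposed 3hr at 37C to 15 concentrations (0.76% DMSO final). Lysed, then HTRF anti-pH2AX (S139) cryptate and anti-H2AX-d2 antibodies, 24 hr room temperature; 665/620 nm emission read.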

Test [7] in a line: qHTS assay to identify small molecule agonists of the hypoxia (HIF-1) signaling pathway (AID 1224846; active = well fitted activation curve with a large enough effect in the signal ratio in the repeat runs, not every such curve was filed as active; the % refers to the signal ratio). The settings on record: HRE-bla ME-180 cells, beta-lactamase ratio, 17 h; at 76.8 µM (top of the series) unless noted. In a few lines:
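A low-serum medium (0.5% dialyzed FBS) holding 2,000 HRE-bla ME-180 cells per well is preincubated for 5 hrs, dosed with compounds by pintool, and kept a further 17 hrs at 37C, 5% CO2 before CCF4-AM FRET detection of beta-lactamase.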

Test [8] in a line: qHTS RealTime-Glo MT Cell Viability Assay in HepG2 cells - 40 hour (AID 1224870). Also: nearly all actives have a fitted effect of over 50% in size. Also: potency is read from the fitted curve at half-maximal effect. In a few lines: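 HepG2 cells (600/well) mixed with RealTime-Glo MT reagent, settled 5 h at 37 C/5% CO2 before compound addition. Nonlytic NanoLuc luminescence from viable-cell prosubstrate reduction read repeatedly during 40 h treatment at 37 C.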
The nature of test [9]: A CellTox Green Cytotoxicity Assay to monitor cytotoxicity in HEK293 cells - 40 hour (AID 1224871). Also: nearly all actives have a fitted effect of over 45% in size. Also: potency is read from the fitted curve at half-maximal effect. In a few lines:
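Fluorescence intensity, read at 0, 8, 16, 24, 32 and 40 h of compound treatment, reflected dye binding to DNA of dead HEK293 cells; compounds (23 nL, DMSO) were added 5 h after plating cells with reagent.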

Test [10] is described as follows: qHTS RealTime-Glo MT Cell Viability Assay in HEK293 cells - 16 hour (AID 1224872). Also: nearly all actives have a fitted effect of over 50% in size. Also: potency is read from the fitted curve at half-maximal effect. As to activity change, negative = cytotoxicity: top concentration of the series differs between compounds. An outline of the steps:
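Assay medium contained NanoLuc luciferase plus cell-permeant prosubstrate, added with HEK293 cells at 600 cells/well. After 5 h at 37 C/5% CO2 compounds were added; plates stayed at 37 C for 40 h with serial luminescence reads.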

Test [11] is described as follows: qHTS RealTime-Glo MT Cell Viability Assay in HEK293 cells - 40 hour (AID 1224874). Also: nearly all actives have a fitted effect of over 50% in size. Also: potency is read from the fitted curve at half-maximal effect. The following applies: RealTime-Glo luminescence; max response: hits give low values. In a few lines: (§1)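 Viable HEK293 cells reduce a cell-permeant prosubstrate; the product diffuses out and is consumed by NanoLuc in the medium to give light. Compounds went in after a 5 h incubation and plates were read over the treatment course.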

Test [12] is described as follows: qHTS RealTime-Glo MT Cell Viability Assay in HepG2 cells - 32 hour (AID 1224877). Also: nearly all actives have a fitted effect of over 55% in size. In a few lines: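 qHTS, HepG2, 600 cells/well, RealTime-Glo (NanoLuc + prosubstrate) added with cells; 5 h preincubation; DMSO compound addition; 37 C; luminescence at 0/8/16/24/32/40 h.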
Test [13] can be described thus: A CellTox Green Cytotoxicity Assay to monitor cytotoxicity in HepG2 cells - 24 hour (AID 1224878). Also: nearly all actives have a fitted effect of over 45% in size. Also: potency is read from the fitted curve at half-maximal effect. In a few lines:
(§2)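 Using 1536-well format, dye-containing HepG2 suspension was seeded, allowed 5 h at 37 C/5% CO2, dosed by pintool with compounds, positive and negative controls, and imaged for fluorescence across 40 h.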

A short description of test [14]: A CellTox Green Cytotoxicity Assay to monitor cytotoxicity in HepG2 cells - 40 hour (AID 1224879). Also: nearly all actives have a fitted effect of over 40% in size. In a few lines:
as §2

Test [15] is described as follows: qHTS RealTime-Glo MT Cell Viability Assay in HEK293 cells - 0 hour (AID 1224880). Also: top concentration of the series differs between compounds; nearly all actives have a fitted effect of over 45% in size. The following applies: RealTime-Glo luminescence; at 76.8 µM (top of the series) unless noted. In a few lines: as §1
Test [16] can be described thus: A CellTox Green Cytotoxicity Assay to monitor cytotoxicity in HepG2 cells - 0 hour (AID 1224882). Also: nearly all actives have a fitted effect of over 35% in size. The settings on record: CellTox Green fluorescence; at 76.8 µM (top of the series) unless noted. In a few lines: as §2
Test [17] is described as follows: qHTS assay to identify small molecule antagonists of the estrogen related receptor signaling pathway with the pleiotropic PPARgamma coactivator (PGC) from Tox21 10K library (AID 1224841; call rule not given here; also: potency is read from the fitted curve at half-maximal effect).
Test [18] is described as follows: qHTS assay to identify small molecule agonists of the estrogen related receptor signaling pathway with the pleiotropic PPARgamma coactivator (PGC) from Tox21 10K library (AID 1224842). Also: nearly all actives have a fitted effect of over 15% in size. The settings on record: PGC/ERR reporter cell line, luciferase ONE-Glo, 18 h; at 92.4 µM (top of the series) unless noted. An outline of the steps: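 PGC/ERR reporter cell line, 2,000 cells per well, incubated 6 h at 37 C before 23 nL compound in DMSO was added. After 18 h at 37 C, One-Glo luminescence read following 30 min at room temperature.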

Test [19] is described as follows: qHTS assay to identify small molecule antagonists of the estrogen related receptor (ERR) signaling pathway from Tox21 library (AID 1224848). Also: nearly all actives have a fitted effect of over 50% in size. Also: potency is read from the fitted curve at half-maximal effect. In a few lines:
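ERR reporter cell line (from NTP) seeded 2,000 cells/well, rested 6 h at 37 C/5% CO2, then pin-dosed with compounds in DMSO. After 18 h at 37 C, ONE-Glo added; luminescence read after 30 min at room temperature.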

Test [20] is described as follows: qHTS assay to identify small molecule agonists of the estrogen related receptor (ERR) signaling pathway from Tox21 library (AID 1224849; calls by dose curve; also: nearly all actives have a fitted effect of over 15% in size). The following applies: ERR reporter cell line, ONE-Glo luciferase, 18 h; at 92.4 µM (top of the series) unless noted. In a few lines:
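Screening used an NTP-provided ERR luciferase cell line. Compounds in DMSO were added 6 h after seeding and left 18 h at 37 C before a 30 min ONE-Glo step and luminescence reading.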
% is scaled to controls: 0 for no effect and ±100 for the full control effect.

Take `CCCCC(CC)CO[P+](=O)OCC(CC)CCCC` (centres undefined): the Potency result in test [1], in test [4], in test [5], in test [6], in test [8] and in [9] was “inactive” in each case. Moreover, the Potency result in test [10], in [12], in test [13] and in test [14] was “inactive” throughout. Also, the activation in test [2] was inactive: -2.05%; in test [7], inactive: -0.396%. In test [3], the viability change, negative = cytotoxic is inactive: 1.33%. Moreover, the max response in [11] is inactive: -5.72%. Besides, the activity change, negative = cytotoxicity in test [15] was inactive: 3.59%. Further, the cytotoxicity in test [16] was inactive: 7.71%.

Turning to `O=P(Cl)(Cl)c1ccccc1`, the Potency entry in test [1], in test [17], in test [4], in test [5], in [6] and in test [19] was “inactive” in each case. For the same compound, the Potency result in [8], in [9], in test [10], in [12], in test [13] and in test [14] was “inactive” each time. The activation in test [2] was inactive: -0.126%; in test [18], inactive: 1.05%; in test [7], inactive: 0.034%. Also, the viability change, negative = cytotoxic in test [3] is inactive: 9.32%. Also, the activity change, positive = activation in test [20] is inactive: 1.75%. Moreover, the max response in test [11] is inactive: 1.05%. Moreover, the activity change, negative = cytotoxicity in test [15] is inactive: 0.914%. Besides, in test [16], the cytotoxicity is inactive: -7.16%.

Consider `COC(=O)Cl`, for which the Potency result in test [1], in test [5], in test [6], in test [8], in test [9] and in test [10] was “inactive” throughout. Further, the Potency entry in [12], in test [13] and in [14] was “inactive” each time. The activation in test [2] is inactive: -0.782%; in test [7], inactive: -0.841%. Also, the viability change, negative = cytotoxic in test [3] was inactive: 2.64%. The max response in [11] is inactive: -0.255%. The activity change, negative = cytotoxicity in test [15] is inactive: 2.88%. Besides, the cytotoxicity in [16] was inactive: -3.96%.

For the compound `Cc1cc([N+](=O)[O-])cc([N+](=O)[O-])c1O`, the Potency result in test [1], in test [4], in [5], in test [6], in [9] and in [13] was “inactive” each time. Further, the Potency in test [17] was active: 15.4 µM and active: 25.3 µM; in test [19], active: 15.4 µM and active: 13.7 µM. Further, the activation in test [7] was inactive: -0.866%. In addition, in test [20], the activity change, positive = activation is inactive: -57.8% and inactive: -62.2%. Moreover, the activity change, negative = cytotoxicity in test [15] is inactive: -1.45% and inactive: -3.95%. In addition, the cytotoxicity in [16] is inactive: 0.39% and inactive: -8.85%.

As for `CCOP(=S)(CC)Sc1ccccc1` (centres undefined), the Potency entry in [1], in [17], in test [4], in test [5], in [6] and in [19] was “inactive” in each case. The Potency result in test [8], in test [9], in test [10], in test [12], in test [13] and in test [14] was “inactive” throughout. In addition, in test [3], the viability change, negative = cytotoxic was inactive: -2.42%. The activation in test [18] was inactive: 0.182%; in [7], inactive: 1.37%. The activity change, positive = activation in [20] was inactive: -3.01%. In addition, the max response in test [11] is inactive: 1.72%. Further, the activity change, negative = cytotoxicity in [15] was inactive: -7.82%. In addition, the cytotoxicity in test [16] is inactive: -7.96%.

In the case of `O=[As]c1ccccc1` (centres undefined), the Potency was active: 486 nM in [1]; active: 193 nM in test [17]; active: 243 nM in [19]; active: 347 nM in test [8]; active: 490 nM in [9]; active: 490 nM in [10]. The Potency in [13] is active: 1230 nM. The values for the activation in [2] and in [18] were inactive: -18.1% and inactive: -38.4%, respectively. The activity change, positive = activation in [20] is inactive: -81.5%. Besides, the activity change, negative = cytotoxicity in test [15] was inactive: 3.43%. Also, in test [16], the cytotoxicity is inactive: -2.15%.

For `CCCCCCCCCCCCCC[P+](CCCCCC)(CCCCCC)CCCCCC`, in test [4], the Potency result is “inactive”. For the same compound, the Potency was active: 20000 nM in test [6] and active: 3880 nM in test [11]. The activity change, negative = cytotoxicity in test [15] is inactive: -3.55%. Besides, the cytotoxicity in test [16] was inactive: -1.58%.

In the case of `O=[p+]1oc2ccccc2c2ccccc21` (centres undefined), the Potency result in test [1], in test [17], in test [4], in test [5], in test [6] and in test [19] was “inactive” each time. Besides, the Potency entry in test [8], in [9], in [10], in test [12], in test [13] and in [14] was “inactive” each time. Moreover, the activation in [2] was inactive: 3.29%; in [18] it was inactive: -1.09%; in [7], inactive: -1.3%. Also, the viability change, negative = cytotoxic in [3] was inactive: -1.42%. Moreover, the activity change, positive = activation in test [20] is inactive: -1.85%. Also, the max response in test [11] is inactive: -0.543%. Further, the activity change, negative = cytotoxicity in [15] is inactive: 5.69%. The cytotoxicity in test [16] is inactive: -1.04%.
